Results from ChEMBL document CHEMBL4316593, “2-(2-(2,4-dioxopentan-3-ylidene)hydrazineyl)benzonitrile as novel inhibitor of receptor tyrosine kinase and PI3K/AKT/mTOR signaling pathway in glioblastoma” (Eur J Med Chem, 2019).

Tests used:
[1] = test system: U-87 MG; test: Cytotoxicity against human U87 cells assessed as reduction in cell proliferation measured after 48 hrs by trypan blue dye-based cell counting analysis; type: functional; details: U-87MG ATCC
[2] = test system: LN-229; test: Cytotoxicity against human LN229 cells assessed as reduction in cell proliferation measured after 48 hrs by trypan blue dye-based cell counting analysis; type: functional

SMILES: CC(=O)C(=NNc1ccccc1C#N)C(C)=O
- Activity [1]: Dose-dependent effect
- Activity [2]: Dose-dependent effect
